Data reported in patent US12186320B2, “Therapeutic agent containing pyrazolo[3,4-d]pyrimidine compound as active ingredient” (TAIHO PHARMACEUTICAL CO., LTD., priority 2018, dated 2025).

Experiment: Body weight change in NCI-N87 tumor recurrence model (Test Example 1)
Format: in vivo, nude mice (BALB/cAJcl-nu/nu)
Details: body weight change on Day 43 versus Day 0 of Step 1; Compound 1 60 mg/kg/day p.o.; trastuzumab emtansine 10 mg/kg/day i.v.
Method: Furthermore, an electronic balance for animals was used to measure the weights. The rate of change in the weight on Day n (BWCn) was calculated from the weight on Day n (BWn) according to the following equation. Rate of change in weight BWCn (%)=(BWn−BW0)/BW0×100
Eighteen nude mice confirmed with tumor recurrence in Step 1 were selected, and 9 animals were assigned to each group by equal distribution (MiSTAT (ver.2.0)) as follows such that the mean TV of each group was uniform (Day 1, i.e., Day 85 as counted from Step 1). Compound 1 was prepared to 6 mg/mL with a 0.1N HCl solution, and the resultant was orally administered once a day on Days 1-42 consecutively. Trastuzumab emtansine (Kadcyla, Roche) was prepared to 1 mg/mL with Otsuka normal saline, and the resultant was administered into the tail vein of each animal once a day on Days 1 and 22. The tumor diameters and weights were measured with time to calculate TV and BWC.

Trastuzumab emtansine
BWC(%) on Day43 Mean: 21.89%
